Data set [1] has as its system mice. Nature of the data set: Rotorod ataxia test (acute neurotoxicity). As to conditions: 300 mg/kg. (Falling from the rotarod earlier than controls is read as motor impairment.)
The subject of data set [2] is mice. As to conditions: mouse, in vivo, 300 mg/kg.
Data set [3] relates to α-MpT-induced hypokinesia in rats. Nature of the data set: Reversal of α-MpT-induced hypokinesia in rats. Type of data set: in vivo, rat. As to conditions: 5 mg/kg i.p., vs saline control.

SMILES strings stand for the structures. Where a name gives a salt, the structure may show the parent alone. Read-outs that look alike come from different tables or passages of the source.

Three compounds from patent US20060094783A1 (Tava Pharmaceutical Industries, Ltd., priority 1990, published 2006) can be followed below.

For the compound `C#CCN[C@@H]1CCc2ccccc21.CS(=O)(=O)O` [(R)-PAI Mesylate, R-(+)-N-propargyl-1-aminoindan mesylate], in the data set with mice [1], the acute neurotoxicity result is “did not show any neurotoxicity”.
On to `C#CCN[C@H]1CCc2ccccc21` [(S)-PAI Mesylate], for which the acute neurotoxicity result with mice [2] was “four out of four”.
As for `C#CCNC1CCc2ccccc21` (racemic) [Rac PAI Mesylate], the “% of control” value in data set [3] amounted to 69%.
